Assay results as given in US9546153B2, “Bicyclic heterocycle substituted pyridyl compounds useful as kinase modulators” (BRISTOL-MYERS SQUIBB COMPANY, priority 2012, dated 2017).

Chains of the proteins cited; added tags and fusions are not shown.
UniProt Q9NWZ3, whole entry, species assumed: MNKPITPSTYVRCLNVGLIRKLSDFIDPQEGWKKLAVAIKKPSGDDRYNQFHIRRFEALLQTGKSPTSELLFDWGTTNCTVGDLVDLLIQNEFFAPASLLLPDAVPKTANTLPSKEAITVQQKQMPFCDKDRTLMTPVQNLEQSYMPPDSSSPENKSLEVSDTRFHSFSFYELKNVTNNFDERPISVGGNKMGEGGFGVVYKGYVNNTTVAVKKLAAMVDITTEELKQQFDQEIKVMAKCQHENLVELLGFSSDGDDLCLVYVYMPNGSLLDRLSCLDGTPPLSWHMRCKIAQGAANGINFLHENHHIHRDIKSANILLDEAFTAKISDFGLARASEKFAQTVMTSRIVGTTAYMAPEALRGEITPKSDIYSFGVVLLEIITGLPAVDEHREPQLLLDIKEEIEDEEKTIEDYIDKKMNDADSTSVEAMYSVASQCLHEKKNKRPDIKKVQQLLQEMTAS

biological target: IRAK4 (Homo sapiens (Human), UniProt Q9NWZ3); assay: IRAK4 Inhibition Assay; type: biochemical; conditions: ATP 500 μM; IRAK4 0.6 nM; 60 min at room temperature
Protocol: The assays were performed in U-bottom 384-well plates. […] The reaction was initiated by the combination of IRAK4 with substrates and test compounds. The reaction was incubated at room temperature for 60 min. and terminated by adding 45 μL of 35 mM EDTA to each sample. The reaction mixture was analyzed on the Caliper LABCHIP® 3000 (Caliper, Hopkinton, Mass.) by electrophoretic separation of the fluorescent substrate and phosphorylated product.

| SMILES | IC50 |
| --- | --- |
| CC(C)(O)[C@H](F)CNC(=O)c1cnc(Nc2ccn3nccc3n2)cc1NC1CCC(F)(F)C1 (stereo partly shown) [Example 259] | 1.8 nM |
| CC(C)(O)[C@H](F)CNC(=O)c1cnc(Nc2nc3ccnn3cc2F)cc1NC1CCCC1O (stereo partly shown) [Example 464] | 9.6 nM |
| CC(C)Nc1cc(Nc2ncc3ncccc3n2)ncc1C(=O)NC[C@@H](F)C(C)(C)O [Example 370] | 4.1 nM |
| CC(O)([C@H](F)CNC(=O)c1cnc(Nc2ccc3ncsc3c2)cc1NC1CCCC1F)C(F)(F)F (stereo in doubt) [Example 342] | 3.3 nM |
| CC(C)Nc1cc(Nc2ccc3ncsc3c2)ncc1C(=O)N[C@H]1CCN(S(C)(=O)=O)C1 [Example 215] | 6.1 nM |
| Cc1cnc2ccc(Nc3cc(NC4CC4)c(C(=O)NC[C@@H](F)C(C)(C)O)cn3)nn12 [Example 276] | 7.1 nM |
| CC(C)(O)[C@H](F)CNC(=O)c1cnc(Nc2ccn3nccc3n2)cc1NC1CCOCC1F (stereo partly shown) [Example 270] | 9.4 nM |
| N#CCNC(=O)c1cnc(Nc2ccc3ncsc3c2)cc1NC1CCCC1 [Example 153] | 6.1 nM |
| CC(C)(O)[C@H](F)CNC(=O)c1cnc(Nc2nc3ccnn3cc2F)cc1NC1CCCC1F (stereo partly shown) [Example 471] | 2.4 nM |
| CC(C)(O)[C@H](F)CNC(=O)c1cnc(Nc2ccn3nccc3n2)cc1NC1CCOCC1F (stereo partly shown) [Example 249] | 2.9 nM |
| CC(C)(O)[C@H](F)CNC(=O)c1cnc(Nc2nc3ccnn3cc2F)cc1NC1CCCC1F (stereo partly shown) [Example 472] | 3.8 nM |
| CC(C)(O)[C@H](F)CNC(=O)c1cnc(Nc2ccn3nccc3n2)cc1NC1CCC1 [Example 241] | 4.1 nM |
| CC(C)Nc1cc(Nc2nc3ccnn3cc2F)ncc1C(=O)NCC(F)(F)C(C)(C)O [Example 522] | 9.3 nM |
| CC(C)(O)[C@H](F)CNC(=O)c1cnc(Nc2ccn3nccc3n2)cc1NC1CCOCC1F (stereo partly shown) [Example 271] | 4.3 nM |
| CC(C)CCNc1cc(Nc2ccc3ncsc3c2)ncc1C(=O)NC[C@@H](F)C(C)(C)O [Example 163] | 6.9 nM |
| CC(C)(O)[C@H](F)CNC(=O)c1cnc(Nc2nc3ccnn3cc2F)cc1N[C@H]1CCC[C@@H]1O [Example 466] | 2.7 nM |
| CC(C)Nc1cc(Nc2ccc3ncsc3c2)ncc1C(=O)NC[C@@H](F)C(O)(C1CC1)C(F)(F)F (stereo partly shown) [Example 31] | 5.2 nM |
| CC(C)(O)[C@H](F)CNC(=O)c1cnc(Nc2nc3ccnn3cc2F)cc1NC1CCCC1F (stereo partly shown) [Example 463] | 3.1 nM |
| CC(C)(O)[C@H](F)CNC(=O)c1cnc(Nc2ccc3ncsc3c2)cc1NC1CCCC1O (stereo partly shown) [Example 335] | 4.1 nM |
| CC(O)([C@H](F)CNC(=O)c1cnc(Nc2ccc3ncsc3c2)cc1NC1CCCC1F)C(F)(F)F (stereo in doubt) [Example 340] | 9.6 nM |
| CC(C)(O)[C@H](F)CNC(=O)c1cnc(Nc2ccn3nccc3n2)cc1NC1CCC(F)(F)C1 (stereo partly shown) [Example 242] | 1.9 nM |
| CC(O)([C@H](F)CNC(=O)c1cnc(Nc2ccc3ncsc3c2)cc1NC1CCCC1F)C(F)(F)F (stereo in doubt) [Example 339] | 11.7 nM |
